Experiments:
human μ-opiate receptor = human μ-opiate receptor (Homo sapiens, UniProt P35372); assay: Affinity for human μ-opiate receptors, [3H]-naloxone binding, CHO-cell membranes; conditions: membranes of CHO-cells expressing human μ-opiate receptor
Procedure: Affinity of the compounds for μ-opiate receptors was determined using the in vitro receptor binding assay described by Childers et al, Eur. J. Pharm 55, 11, 1979. Briefly, membrane preparations were obtained from CHO-cells in which the human μ-opiate receptor was stably expressed, and were incubated with the [^3H]-naloxone in the absence or presence of test-compounds in a concentration range from 10 μM down to 0.1 nM, diluted in a suitable buffer. Non specific binding was defined as binding remaining in the presence of 10^−7 M levallorphan tartrate.

Sequences of proteins named here, by UniProt entry; tags and fusion partners are left off.
UniProt P35372, whole entry: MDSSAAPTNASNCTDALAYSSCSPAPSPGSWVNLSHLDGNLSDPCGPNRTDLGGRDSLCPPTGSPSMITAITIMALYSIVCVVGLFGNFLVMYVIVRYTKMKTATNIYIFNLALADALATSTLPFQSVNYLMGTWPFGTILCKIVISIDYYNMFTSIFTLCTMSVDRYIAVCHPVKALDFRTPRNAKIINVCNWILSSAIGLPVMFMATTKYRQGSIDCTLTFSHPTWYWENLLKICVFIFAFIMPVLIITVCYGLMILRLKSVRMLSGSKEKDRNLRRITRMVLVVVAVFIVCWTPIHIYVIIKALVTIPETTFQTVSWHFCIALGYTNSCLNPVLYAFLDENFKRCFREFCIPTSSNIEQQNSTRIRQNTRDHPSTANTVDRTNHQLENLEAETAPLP
UniProt P41146, whole entry: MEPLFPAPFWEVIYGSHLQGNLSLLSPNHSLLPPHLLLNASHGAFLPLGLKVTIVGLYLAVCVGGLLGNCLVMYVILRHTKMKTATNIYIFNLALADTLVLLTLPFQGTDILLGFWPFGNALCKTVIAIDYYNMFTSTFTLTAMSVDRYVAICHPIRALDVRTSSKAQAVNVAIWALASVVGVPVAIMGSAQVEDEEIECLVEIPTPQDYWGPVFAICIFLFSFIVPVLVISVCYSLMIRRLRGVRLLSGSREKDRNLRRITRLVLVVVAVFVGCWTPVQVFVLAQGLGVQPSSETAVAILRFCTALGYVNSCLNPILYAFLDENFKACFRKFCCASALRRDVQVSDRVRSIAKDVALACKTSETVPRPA

human ORL1 receptor = human ORL1 receptor (Homo sapiens, UniProt P41146); assay: Affinity for human ORL1 receptors, [3H]-nociceptin binding, CHO-cell membranes; conditions: membranes of CHO-cells expressing human ORL1
Procedure: Affinity of the compounds for human ORL1 receptors was determined using the in vitro receptor binding assay described by Ardati et al., Mol. Pharmacol., 51, 816, 1997. Briefly, membrane preparations were obtained from CHO-cells in which the human ORL1 receptor was stably expressed. Membranes were incubated with [^3H]-nociceptin in the absence or presence of test compound in different concentrations, diluted in a suitable buffer. Non specific binding was defined as binding remaining in the presence of 10^−6 M nociceptin. Separation of bound radioactivity from free was done by filtration through Packard GF/B glass fiber filters with several washings with ice-cold buffer using a Packard cell harvester. Bound radioactivity was measured with a scintillation counter (Topcount, Packard) using a liquid scintillation cocktail (Microscint 0, Packard). Measured radioactivity was plotted against the concentration of the displacing test compound and displacement curves were calculated by four-parameter logistic regression, resulting in IC50 values, i.e. that concentration of test compound by which 50% of the radioligand is displaced.

Structure (SMILES) | affinity μ-opi pKi (human μ-opiate receptor) | affinity ORL1 pKi (human ORL1 receptor)
O=c1[nH]c2ccccc2n1C1CCN(C2CCC3CCCc4cc(F)cc2c43)CC1 (stereo not drawn) | 6.9 | 7.9
Cc1ccc2c3c1CCCC3CCC2N1CCC(n2c(=O)[nH]c3ccccc32)CC1 (stereo not drawn) | 8.1 | 9.2
O=c1[nH]c2ccccc2n1C1CCN(C2CCC3CCCc4ccc(F)c2c43)CC1 (stereo not drawn) | 7.5 | 8.4

From patent publication US8067603B2 (priority 2003, dated 2011)
